The values that follow come from article PMC5520492, “Inhibition of DNA2 nuclease as a therapeutic strategy targeting replication stress in cancer cells” (Oncogenesis, 2017).

This test deals with U2OS cells. Briefly: Cell-based viability/proliferation screen, DAPI staining and automated microscopy. The settings on record: IC50 n.d.

On to `COC1=C(N)C(=O)c2nc(-c3nc(C(=O)O)c(C)c(-c4ccc(OC)c(OC)c4O)c3N)ccc2C1=O`, for which the “Cell Based screening remark” value is on record as “n.d. (cytotoxic)”.
